## Measured affinities in a library of Ab-14 heavy chain variants

The target is the same throughout: PDVDLGDISGINAS, from the HR2 region of SARS-CoV-2 spike.

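Variants in AAYL49 differ from the parent at up to three CDR positions; double and triple changes were sampled at random. The scFvs were displayed on barcoded MATa yeast, the peptide on MATalpha yeast. Mating (16 h, 30 °C) was followed by selection of diploids and sequencing of their barcodes. The ratio of observed to expected reads was calibrated, replicate by replicate, on BCL2-family standards whose Kd was known from biolayer interferometry. The assay was run in three technical replicates.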

Parent: Ab-14, a human scFv built as VH, the linker GGGGSGGGGSGGGGS, VL. Only the CDRs of the heavy chain vary.
VH: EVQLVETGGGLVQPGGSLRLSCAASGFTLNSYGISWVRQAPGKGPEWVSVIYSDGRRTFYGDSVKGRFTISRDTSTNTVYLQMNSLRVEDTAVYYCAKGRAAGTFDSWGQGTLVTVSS
VL: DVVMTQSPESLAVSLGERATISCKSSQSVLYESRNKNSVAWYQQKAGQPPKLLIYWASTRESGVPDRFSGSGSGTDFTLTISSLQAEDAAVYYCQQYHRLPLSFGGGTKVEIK

Positions count from residue 1 of the parent VH; S31Y puts Y in place of S.
This list gathers variants with a substitution at S31 (VH, numbered from residue 1).
The read-out is the apparent dissociation constant on a log10 scale (nM): the lower, the stronger.
Replicates are averaged; those with no signal do not enter the mean.
"ND" marks a missing value. The strain was present, yet no cells mated with the target were sequenced in that replicate, which points to weak or no binding.
Three control strains display no target. For library AAYL49, 15% of the pairings with them gave a signal, with a median of 4.06 and one signal in twenty below 2.83, so weak values seen in few replicates may be background.

- S31Y+R57V+F59A = ND, ND, ND
- S31Q+G55M+T58I = ND, ND, ND
- S31R+V50P+D62W = ND, 4.87, ND
- S31F+G55N+T104G = ND, ND, ND
- T28Y+S31D+I34M = 1.99, 1.44, 1.77 (mean 1.73)
- S31F+G33K+G103A = ND, ND, ND
- G26D+S31N+K65N = 1.38, 1.57, 1.32 (mean 1.42)
- S31K+K65Y+S107K = 2.32, 2.05, 2.19 (mean 2.19)
- N30D+S31F+K65R = 1.33, 1.33, 1.33 (mean 1.33)
- S31G+Y60L = ND, ND, ND
- L29G+S31L+Y32M = ND, ND, ND
- S31N+F59N+G99C = ND, ND, ND
- S31P+G61A = 2.65, 2.84, 3.87 (mean 3.12)
- S31T+S53L+R56Q = 4.73, ND, ND
- S31Q+I51M+S53D = ND, ND, ND
- T28N+S31W+R57E = ND, 2.55, ND
- S31Q+I34D+S53I = 3.94, 4.14, ND (mean 4.04)
- F27T+S31G+G103K = ND, 3.69, ND
- S31A+V50H+V64C = ND, ND, ND
- S31E+V50C+K65Y = 2.47, 2.22, 2.42 (mean 2.37)
- S31M+F59H+V64S = ND, 2.70, ND
- S31K+Y32G+S53R = ND, ND, ND
- S31D+G55D+D106Q = ND, ND, ND
- S31E+I51H+V64H = ND, ND, ND
- L29N+S31P+I51T = ND, ND, ND
- T28C+L29K+S31I = ND, ND, ND
- S31G+S63C = ND, ND, ND
- S31A = 1.10, 1.14, 1.07 (mean 1.10)
- L29P+S31V+T104W = 5.01, 3.89, ND (mean 4.45)
- S31N+G99H+S107D = ND, 2.19, 2.05 (mean 2.12)
- S31I+G33A+K65G = ND, ND, ND
- S31R+S107M = 1.12, 1.04, 0.91 (mean 1.03)
- S31V+A102W = 1.94, 2.14, 1.66 (mean 1.91)
- S31C+S53N = ND, 4.73, ND
- N30I+S31W+G61H = ND, 2.40, ND
- N30E+S31R+V64M = 1.60, 1.76, 2.01 (mean 1.79)
- S31C+Y60C+D106G = 2.96, ND, 3.08 (mean 3.02)
- S31I+R100V+S107F = ND, ND, 2.15
- S31I+G103P+S107E = ND, 5.26, ND
- L29R+S31F+G33R = ND, ND, ND
- G26E+S31F+V64M = ND, ND, ND
- S31V+Y52C+T58W = 5.75, 5.35, 4.65 (mean 5.25)
- G26V+S31I+G33M = ND, ND, ND
- G26C+N30M+S31A = ND, ND, ND
- G26Y+S31G+S35Q = ND, ND, ND

From the AlphaSeq antibody data of Engelhart et al. 2022 (doi:10.1038/s41597-022-01779-4), copy in the FLAb collection.